AlphaSeq binding of Ab-14 light chain variants to a spike HR2 peptide

Target: peptide PDVDLGDISGINAS, taken from heptad repeat 2 (HR2) of SARS-CoV-2 spike.

Each scFv is VH, a 15-residue (Gly4Ser)3 linker, VL, as in the parent Ab-14, and differs from it in the CDRs of the light chain only.
VH: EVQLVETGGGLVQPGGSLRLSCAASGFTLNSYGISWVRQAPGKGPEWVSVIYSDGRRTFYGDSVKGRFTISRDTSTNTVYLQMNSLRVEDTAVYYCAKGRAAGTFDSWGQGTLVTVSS
VL: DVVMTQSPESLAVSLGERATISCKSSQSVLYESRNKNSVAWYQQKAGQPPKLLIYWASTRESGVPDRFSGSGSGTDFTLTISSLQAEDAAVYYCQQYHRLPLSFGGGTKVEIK

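Phage display of a naive human antibody library on the peptide gave the parent. Variants in AAYL50 differ from the parent at up to three CDR positions; double and triple changes were sampled at random. The assay is AlphaSeq: two haploid yeast populations carry antibody and antigen on their surface. Mating (16 h, 30 °C) was followed by selection of diploids and sequencing of their barcodes. The ratio of observed to expected reads was calibrated, replicate by replicate, on BCL2-family standards whose Kd was known from biolayer interferometry. There are three technical replicates.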

Variants are written as CDR1, CDR2 and CDR3 of the light chain (limits as in the source). Parent: KSSQSVLYESRNKNSVA, WASTRES, QQYHRLPLS. All variants listed here change T59 of the VL, counted from its first residue. Values are apparent Kd, the geometric mean of the replicates that gave a signal; lower means stronger binding. "nd" marks a missing value. The strain was present, yet no cells mated with the target were sequenced in any replicate, which points to weak or no binding. Nonspecific signal, from three strains lacking the peptide, appeared in 18% of pairings of library AAYL50, centred on 15 µM (5% of these signals below 970 nM); values are not corrected for it. The control count says in how many pairings with the empty strains this scFv gave a signal. For reference, the parent read 4.4 nM as the reference entry and 48 nM as a member of this library.

- KSSQSVLYCSRNKNSVA / WASHRES / VQYHRLPLS: 36 µM (2 of 3 replicates; controls 2 of 9)
- KSSQSVLYDSRNKNSVA / WASWRES / QLYHRLPLS: 6.8 µM (1 of 3 replicates; controls 1 of 9)
- KSSQSVLYESRNKNSVA / WASDRES / VQYHRLPLD: 34 µM (1 of 3 replicates; controls 3 of 9)
- KSSQSVLYEPRNKNSVA / RASERES / QQYHRLPLS: 7.0 nM (3 of 3 replicates; controls 1 of 9)
- KSSQSVLYESRNKNSVA / WASMRES / QQYGRLPLS: 42 µM (3 of 3 replicates; controls 1 of 9)
- KSSQSVLYESRNKNSVA / WASYGES / QQDHRLPLS: nd (0 of 3 replicates; controls 0 of 9)
- KSSQSVLYESRNKNSVA / WASYRES / QQYHRLPES: 560 µM (1 of 3 replicates; controls 3 of 9)
- FSSQSVLYESRQKNSVA / WASFRES / QQYHRLPLS: nd (0 of 3 replicates; controls 1 of 9)
- KSSQSVLYESRNHNSVA / WASASES / QQYHRLPLS: 79 nM (3 of 3 replicates; controls 0 of 9)
- KSSQSVLRESRNKNSVA / WASNREG / QQYHRLPLS: nd (0 of 3 replicates; controls 1 of 9)
- KSSQSVLIESRNKNSVA / WAYSRES / QQYHRLPLS: 440 nM (2 of 3 replicates; controls 2 of 9)
- KSSQSVLYESRNKNSVL / WTSQRES / QQYHRLPLS: 76 µM (3 of 3 replicates; controls 6 of 9)
- KSSQSVLYLHRNKNSVA / WASDRES / QQYHRLPLS: 57 nM (3 of 3 replicates; controls 0 of 9)
- KSSQSVCYESRNKNSVF / WASYRES / QQYHRLPLS: nd (0 of 3 replicates; controls 1 of 9)
- KSSQSVLYESRNWNSVA / WASCRGS / QQYHRLPLS: 49 nM (3 of 3 replicates; controls 2 of 9)
- KSSQSVLYESRNKYSVA / WASDREP / QQYHRLPLS: 11 nM (3 of 3 replicates; controls 3 of 9)
- KSSQSVLYESRNKNSVA / WASRRPS / QQYPRLPLS: 970 nM (1 of 3 replicates; controls 4 of 9)
- KSSQSVLYGSRNKNSVA / WASCRES / QQYHRLPLH: 490 nM (3 of 3 replicates; controls 8 of 9)
- KSSQSVLYESRNKNSVA / WASMRES / QQYHRLPLS: 15 nM (2 of 3 replicates; controls 0 of 9)
- KSSQSVLYESRIKNSVA / WASRREF / QQYHRLPLS: 670 nM (3 of 3 replicates; controls 0 of 9)
- KSTQSVLYESRNKNGVA / WASYRES / QQYHRLPLS: 1.9 µM (1 of 3 replicates; controls 1 of 9)
- KSSQSVLYESRNKNSVA / WTSPRES / QQCHRLPLS: nd (0 of 3 replicates; controls 2 of 9)
- KHSQSVLYESRNKCSVA / WASVRES / QQYHRLPLS: 67 nM (3 of 3 replicates; controls 4 of 9)
- KSSFSVLYESGNKNSVA / WASRRES / QQYHRLPLS: 2.4 nM (3 of 3 replicates; controls 0 of 9)
- KSSQSVLYESRNKNSVA / WASHRES / QQYHRLPWW: 1.8 µM (3 of 3 replicates; controls 1 of 9)
- KSSQSVLYESRNKNSVA / WAFERES / QQNHRLPLS: 3.5 µM (1 of 3 replicates; controls 0 of 9)
- KSSQSVLYESRVKNSLA / WASKRES / QQYHRLPLS: 400 nM (1 of 3 replicates; controls 0 of 9)
- KSSQSVLYLVRNKNSVA / WASHRES / QQYHRLPLS: 160 µM (2 of 3 replicates; controls 3 of 9)
- KSSQSVLYESRNKNSVA / WASLRNS / QQYHRLPSS: 7.6 nM (3 of 3 replicates; controls 1 of 9)
- KSSQSVNYESRNKNCVA / WASARES / QQYHRLPLS: 150 nM (1 of 3 replicates; controls 1 of 9)
- KSSQSVLYESRNKNSVA / WASYRMS / QQYHRLPLS: 270 µM (1 of 3 replicates; controls 4 of 9)
- KSNWSVLYESRNKNSVA / WASFRES / QQYHRLPLS: 120 nM (3 of 3 replicates; controls 1 of 9)
- KSSQSVLYESRNKNSVA / WISRRES / QQYHRLPLM: 14 µM (2 of 3 replicates; controls 0 of 9)
- KSSQSVLYESRNKNSIK / WASMRES / QQYHRLPLS: nd (0 of 3 replicates; controls 2 of 9)
- KSSQSVLYQSFNKNSVA / WASIRES / QQYHRLPLS: 7.0 nM (3 of 3 replicates; controls 0 of 9)
- KSSRSVLYESRNKNSDA / WASHRES / QQYHRLPLS: nd (0 of 3 replicates; controls 3 of 9)
- KSSQSVLYESRNQNSVA / WASCRES / QQYHRLPLS: 13 nM (3 of 3 replicates; controls 2 of 9)
- KSSQSVLYESRNKNSVA / WASFRES / QQYHRLPLS: 14 nM (3 of 3 replicates; controls 3 of 9)
- KTSQSVLYESRNKNSVV / WASYRES / QQYHRLPLS: 190 µM (1 of 3 replicates; controls 5 of 9)
- NSSQSVLYESRNKNSVA / WASKREK / QQYHRLPLS: 1.2 µM (3 of 3 replicates; controls 0 of 9)
- KSSQSVLYESRLKNSVA / WASARES / QQYHRLNLS: nd (0 of 3 replicates; controls 4 of 9)
- KSSQSVLYESRNKNSVA / WASHRES / YQYKRLPLS: nd (0 of 3 replicates; controls 2 of 9)
- KKSQSVLYESRNKNSVA / WASSRAS / QQYHRLPLS: 42 nM (3 of 3 replicates; controls 2 of 9)
- KSSQSVLYESRNKNSVA / WASRRES / QQRHRLLLS: 4.4 µM (2 of 3 replicates; controls 2 of 9)

For reference, 3 entries of the list once more:

CDR-L1	CDR-L2	CDR-L3	Kd (apparent)	detected	signal with controls
KSSQSVLYCSRNKNSVA	WASHRES	VQYHRLPLS	36 µM	2 of 3	2 of 9
KKSQSVLYESRNKNSVA	WASSRAS	QQYHRLPLS	42 nM	3 of 3	2 of 9
KSSQSVLYESRNKNSVA	WTSPRES	QQCHRLPLS	nd	0 of 3	2 of 9

Source: Engelhart et al. 2022 (doi:10.1038/s41597-022-01779-4), MIT Lincoln Laboratory and A-Alpha Bio; data file from the FLAb repository.